Tests used:
PI3Kδ = PI3Kδ (Homo sapiens, UniProt O00329); assay: ADP-Glo luminescent assay, enzymatic activity of PI3K delta; type: biochemical; conditions: ATP 25 μM; read-out: PI3K delta (nM) inhibitory activity (IC50)
Description: Enzymatic activity of PI3K isoforms: Enzymatic activity of the class I PI3K isoforms in the presence of the compounds of Table 1 was measured using ADP-Glo luminescent assay against PI3Kα, PI3Kβ, PI3Kδ and PI3Kγ with ATP concentration at 25 μM. IPI-549 was used as the reference compound. The compounds would be tested from 1 or 10 μM, 3-fold dilution for 10 doses, in duplicate.
Compound preparation: Dilute a compound to 100× of the final desired highest inhibitor concentration in reaction by 100% DMSO. Transfer 100 μl of this compound dilution to a well in a 96-well plate and serially dilute it with DMSO for a total of 10 concentrations.
Kinase reaction: Prepare a solution of PI3K in 1× kinase buffer at 2-fold the final concentration of each reagent in the assay. Control wells contain 1× kinase buffer without enzyme. Prepare substrate solution of PIP2 substrate and ATP in 1× kinase reaction buffer at 2-fold of the final concentration. Add concentration substrate solution to each well to the final concentration. Cover the assay plate, shake to mix, and incubate at room temperature for 1 hour. Add 5 μl of ADP-Glo reagent to each well to stop the reaction. Mix briefly with a quick spin, shake slowly on the shaker for 120 min. Add 10 ul Kinase Detection Reagent to each well, shake 1 min, equilibrate for 30 min before reading on a luminescence plate reader. […]

The chains behind the UniProt entries cited, without tags or fusion partners. Where a name states a change or a piece, a line headed by the entry shows the natural chain unless it says otherwise.
UniProt O00329, whole entry, species assumed: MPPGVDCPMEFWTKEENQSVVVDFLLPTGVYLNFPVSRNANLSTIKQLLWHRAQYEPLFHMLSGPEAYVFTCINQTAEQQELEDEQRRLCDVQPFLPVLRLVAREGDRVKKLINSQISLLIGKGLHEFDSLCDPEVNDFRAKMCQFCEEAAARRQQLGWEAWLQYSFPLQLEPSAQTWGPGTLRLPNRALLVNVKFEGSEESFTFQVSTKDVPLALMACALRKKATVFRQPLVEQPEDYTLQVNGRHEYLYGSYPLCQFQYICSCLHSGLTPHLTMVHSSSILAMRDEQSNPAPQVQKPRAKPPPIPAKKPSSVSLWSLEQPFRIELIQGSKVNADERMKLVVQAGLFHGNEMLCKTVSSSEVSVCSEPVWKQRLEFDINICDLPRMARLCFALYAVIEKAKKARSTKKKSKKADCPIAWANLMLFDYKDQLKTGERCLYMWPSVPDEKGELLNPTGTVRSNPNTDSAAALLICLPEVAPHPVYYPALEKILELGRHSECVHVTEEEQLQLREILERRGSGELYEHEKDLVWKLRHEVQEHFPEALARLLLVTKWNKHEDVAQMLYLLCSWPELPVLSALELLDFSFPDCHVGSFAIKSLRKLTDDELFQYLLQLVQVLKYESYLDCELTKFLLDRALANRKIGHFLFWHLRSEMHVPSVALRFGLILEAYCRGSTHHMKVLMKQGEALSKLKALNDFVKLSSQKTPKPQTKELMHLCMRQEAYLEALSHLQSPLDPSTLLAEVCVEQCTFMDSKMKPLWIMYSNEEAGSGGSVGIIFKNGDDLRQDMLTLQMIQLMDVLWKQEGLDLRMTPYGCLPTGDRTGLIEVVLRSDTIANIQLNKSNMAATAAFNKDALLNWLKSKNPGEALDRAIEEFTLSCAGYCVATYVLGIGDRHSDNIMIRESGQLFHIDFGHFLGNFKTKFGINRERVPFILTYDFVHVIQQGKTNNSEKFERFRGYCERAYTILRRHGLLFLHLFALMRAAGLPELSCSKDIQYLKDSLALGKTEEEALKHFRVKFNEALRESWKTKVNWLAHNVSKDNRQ

PI3K delta = target: T1, PI3K delta (Homo sapiens, UniProt O00329); assay: Raji cell assay: phosphorylation of AKT in anti-IgM stimulated Raji cells (AlphaLISA); type: cell-based; conditions: pAKT, read-out: PI3K delta Raji cell (nM) cellular activity (IC50)
T1 construct: endogenous in cells; host or cells: Raji

With `C[C@H](NC(=O)c1c(N)nn2cccnc12)c1cc2cccc(C#Cc3cnn(C)c3)c2c(=O)n1-c1ccccc1` [IPI-549, reference compound] the IC50 (PI3Kδ) was 65 nM and the IC50 (PI3K delta) was 133 nM.

Reference: US11542262B2, “Phosphatidylinositol 3-kinase inhibitors” (NANJING ZHENGXIANG PHARMACEUTICALS CO., LTD., priority 2019, dated 2023)
